Values of other authors, collected in patent US20170360029A1, “Chemical Agent For Controlling Soil Nematode Which Comprises Macrolide-Type Compound” (Maruwa Biochemical Co., Ltd., priority 2012, published 2017).

Conditions: cited from earlier work

For emamectin benzoate, the solubility to water is given as 24 µg/mL.
